Measurements published in patent publication US20150141411A1, “SUBSTITUTED 3,4-DIHYDRO-2H-PYRIDO[1,2-A]PYRAZINE-1,6-DIONE DERIVATIVES USEFUL FOR THE TREATMENT OF (INTER ALIA) ALZHEIMER'S DISEASE” (Janssen Pharmaceuticals, Inc., priority 2012, published 2015).

Assays:
γ-secretase = γ-secretase (Homo sapiens, UniProt P49768); assay: Screening for γ-secretase-modulating activity: Aβtotal in supernatant of SKNBE2 cells carrying hAPP 695 wild type (Alphalisa)
Experimental: Screening was carried out using SKNBE2 human neuroblastoma cells carrying the hAPP 695—wild type, grown in Dulbecco's Modified Eagle's Medium/Nutrient mixture F-12 (DMEM/NUT-mix F-12) (HAM) provided by Invitrogen (cat no. 10371-029) containing 5% Serum/Fe supplemented with 1% non-essential amino acids, 1-glutamine 2 mM, Hepes 15 mM, penicillin 50 U/ml (units/ml) en streptomycin 50 μg/ml. Cells were grown to near confluency.
The screening was performed using a modification of the assay as described in Citron et al (1997) Nature Medicine 3: 67. Briefly, cells were plated in a 384-well plate at 10^4 cells/well in Ultraculture (Lonza, BE12-725F) supplemented with 1% glutamine (Invitrogen, 25030-024), 1% non-essential amino acid (NEAA), penicillin 50 U/ml en streptomycin 50 μg/ml in the presence of test compound at different test concentrations. The cell/compound mixture was incubated overnight at 37° C., 5% CO2. The next day the media were assayed by two sandwich immuno-assays, for Aβ42 and Aβ total.
Aβtotal and Aβ42 concentrations were quantified in the cell supernatant using the Aphalisa technology (Perkin Elmer). Alphalisa is a sandwich assay using biotinylated antibody attached to streptavidin coated donorbeads and antibody conjugated to acceptor beads. In the presence of antigen, the beads come into close proximity. The excitation of the donor beads provokes the release of singlet oxygen molecules that trigger a cascade of energy transfer in the acceptor beads, resulting in light emission. To quantify the amount of Aβ42 in the cell supernatant, monoclonal antibody specific to the C-terminus of Aβ42 (JRF/cAβ42/26) was coupled to the receptor beads and biotinylated antibody specific to the N-terminus of Aβ (JRF/AβN/25) was used to react with the donor beads. To quantify the amount of Aβtotal in the cell supernatant, monoclonal antibody specific to the N-terminus of Aβ (JRF/AβN/25) was coupled to the receptor beads and biotinylated antibody specific to the mid region of Aβ (biotinylated 4G8) was used to react with the donor beads.
To obtain the values reported in Table 3, the data are calculated as percentage of the maximum amount of amyloid Beta 42 measured in the absence of the test compound. The sigmoidal dose response curves were analyzed using non-linear regression analysis with percentage of the control plotted against the log concentration of the compound. A 4-parameter equation was used to determine the IC50.

Aβ38 = assay: In vivo efficacy: brain soluble Aβ38 in non-transgenic rodents (MSD electrochemiluminescence multiplex); settings: dose 30 mg/kg oral dosing, brain soluble fraction, animals sacrificed after 4 h
From the text: To determine whether acute administration of an Aβ38 increasing agents would increase Aβ38 levels in vivo, non-transgenic rodents, e.g. mice or rats were used. Animals treated with the Aβ38 increasing agents were examined and compared to those untreated or treated with vehicle and brain levels of soluble Aβ42, Aβ40, Aβ38, and Aβ37 were quantitated by MSD electrochemiluminescence detection technology. Treatment periods varied from hours (h) to days and were adjusted based on the results of the Aβ38 increase once a time course of onset of effect could be established.
A typical protocol for measuring Aβ38 increase in vivo is shown but it is only one of many variations that could be used to optimize the levels of detectable Aβ. For example, Aβ38 increasing agents were formulated in 20% of Captisol® (a sulfobutyl ether of β-cyclodextrin) in water or 20% hydroxypropyl βcyclodextrin. The Aβ38 increasing agents were administered as a single oral dose or by any acceptable route of administration to overnight fasted animals. After 4 h, the animals were sacrificed and Aβ38 levels were analysed.
Blood was collected by decapitation and exsanguinations in EDTA-treated collection tubes. Blood was centrifuged at 1900 g for 10 minutes (min) at 4° C. and the plasma recovered and flash frozen for later analysis. The brain was removed from the cranium and hindbrain. The cerebellum was removed and the left and right hemisphere were separated. The left hemisphere was stored at −18° C. for quantitative analysis of test compound levels. The right hemisphere was rinsed with phosphate-buffered saline (PBS) buffer and immediately frozen on dry ice and stored at −80° C. until homogenization for biochemical assays.
Mouse brains from non-transgenic animals were resuspended in 8 volumes of 0.4% DEA (diethylamine)/50 mM NaCl containing protease inhibitors (Roche-11873580001 or 04693159001) per gram of tissue, e.g. for 0.158 g brain, add 1.264 ml of 0.4% DEA. All samples were homogenized in the FastPrep-24 system (MP Biomedicals) using lysing matrix D (MPBio #6913-100) at 6 m/s for 20 seconds. […] Nine parts of supernatant were neutralized with 1 part 0.5 M Tris-HCl pH 6.8 and used to quantify Aβ.
To quantify the amount of Aβ42, Aβ40, Aβ38, and Aβ37 in the soluble fraction of the brain homogenates, simultaneous specific detection of Aβ42, Aβ40, Aβ38, and Aβ37 was performed using MSD's electro-chemiluminescence multiplex detection technology. […] Following this incubation and subsequent wash steps the assay was finished by adding read buffer according to the manufacturer's instructions (MesoScale Discovery, Gaitherburg, Md.).
The SULFO-TAG emits light upon electrochemical stimulation initiated at the electrode. MSD Sector instrument SI6000 was used for signal read-out. […]

[1] = read-out: IC50 Aβtotal, SKNBE2 human neuroblastoma cells carrying hAPP 695 wild type, overnight incubation, Aβtotal in cell supernatant
[2] = untreated animals (Ctrl) set at 100

SMILES	IC50 (γ-secretase; [1]) [µM]	Aβ38 (% vs Ctrl)_Mean (Aβ38; [2]) [% vs Ctrl]	Aβ38 (% vs Ctrl)_Mean (Aβ38; untreated animals (Ctrl) set at 100, tested form: HCl) [% vs Ctrl]	IC50 (γ-secretase; read-out: IC50 Aβtotal, SKNBE2 human neuroblastoma cells carrying hAPP 695 wild type, overnight incubation, Aβtotal in cell supernatant, tested form: HCl) [µM]
Cc1cn(-c2ccc3n(c2=O)C[C@H](C)N(Cc2ccc(Cl)c(Cl)c2)C3=O)cn1	> 10	–	–	–
Cc1cn(-c2ccc3n(c2=O)C[C@@H](C)N(C(C)c2cc(Cl)cc(C(F)(F)F)c2)C3=O)cn1 (single isomer, unassigned) [130]	> 10	182	–	–
Cc1cn(-c2ccc3n(c2=O)CCN(CC2(c4cc(C(F)(F)F)cc(C(F)(F)F)c4)CC2)C3=O)cn1	> 10	154	–	–
Cc1cn(-c2ccc3n(c2=O)CCN(CC2(c4cc(C(F)(F)F)cc(C(F)(F)F)c4)CCC2)C3=O)cn1	> 10	185	–	–
Cc1cn(-c2ccc3n(c2=O)C[C@@H](C)N(CC2(c4cc(C(F)(F)F)cc(C(F)(F)F)c4)CC2)C3=O)cn1	–	–	153	> 10

Read-outs that look alike come from different tables or passages of the source.
